The values below come from patent US8129371B2, “Thienopyrimidine and pyrazolopyrimidine compounds and their use as mTOR kinase and PI3 kinase inhibitors” (Wyeth LLC, priority 2007, dated 2012).

By UniProt entry, the sequences of proteins in these tests, tags left out.
UniProt P42336, whole entry: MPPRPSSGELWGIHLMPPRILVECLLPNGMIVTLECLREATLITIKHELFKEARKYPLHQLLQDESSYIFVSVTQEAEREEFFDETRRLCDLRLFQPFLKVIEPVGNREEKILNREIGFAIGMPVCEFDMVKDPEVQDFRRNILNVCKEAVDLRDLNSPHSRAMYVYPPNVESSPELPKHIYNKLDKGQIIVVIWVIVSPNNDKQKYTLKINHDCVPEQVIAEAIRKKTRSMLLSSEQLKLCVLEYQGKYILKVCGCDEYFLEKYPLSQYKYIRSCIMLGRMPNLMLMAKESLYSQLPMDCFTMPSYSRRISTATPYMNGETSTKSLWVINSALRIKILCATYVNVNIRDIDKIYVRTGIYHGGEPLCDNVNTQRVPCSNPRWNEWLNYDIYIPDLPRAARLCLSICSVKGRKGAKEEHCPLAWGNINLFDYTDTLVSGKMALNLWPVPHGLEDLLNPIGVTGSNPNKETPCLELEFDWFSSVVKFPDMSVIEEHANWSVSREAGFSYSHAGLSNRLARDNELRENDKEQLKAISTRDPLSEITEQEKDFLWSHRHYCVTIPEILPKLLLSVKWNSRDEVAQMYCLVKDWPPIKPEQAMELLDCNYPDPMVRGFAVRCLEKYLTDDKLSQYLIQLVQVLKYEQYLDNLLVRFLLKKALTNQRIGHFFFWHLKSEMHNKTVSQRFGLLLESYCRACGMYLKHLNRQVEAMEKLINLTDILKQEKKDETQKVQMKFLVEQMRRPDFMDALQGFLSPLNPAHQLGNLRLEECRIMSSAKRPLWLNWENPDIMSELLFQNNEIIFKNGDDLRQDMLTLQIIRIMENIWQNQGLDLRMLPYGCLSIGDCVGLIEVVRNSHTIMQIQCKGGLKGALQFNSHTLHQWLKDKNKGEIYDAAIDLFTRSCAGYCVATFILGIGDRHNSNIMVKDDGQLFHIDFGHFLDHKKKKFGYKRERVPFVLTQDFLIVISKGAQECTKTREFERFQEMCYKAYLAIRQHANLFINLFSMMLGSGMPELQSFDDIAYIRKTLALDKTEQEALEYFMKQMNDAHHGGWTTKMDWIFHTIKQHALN

In the assay the target is T1, PI3K (Homo sapiens, UniProt P42336).
T1 construct: PI3 Kinase α IC50; other: PI3 Kinase α; other: PI3 Kinase α isoform, fluorescence polarization
The assay is described as follows: Fluorescence polarization assay for PI3K. The note with it: PI3 Kinase α. The format is biochemical. As for the experimental part:
This assay is used to determine the IC50 of compounds of the present invention as it identifies inhibitors of PI3 kinase by measuring inhibition.
The assay is run by placing 5 μL of diluted enzyme per well, then 5 μL of diluted compound (or 9.5 μL enzyme then 0.5 μL compound in DMSO) is added and mixed. Then, 10 μL substrate is added to start the reaction. The samples are incubated 30-60 minutes, then the reaction is stopped by adding 20 μL stop/detector mix. PI3K is diluted with reaction buffer (e.g., 5 μL or 7.5 μL PI3K into 620 μL reaction buffer), and 5 μL of diluted enzyme is used per well. 5 μL reaction buffer or drug diluted in buffer (e.g., 4 μL/100 so final DMSO is 1% in reaction) is added to each. Pipetting up and down mixes the samples. Alternatively, the enzyme can be diluted to 1215 μL. In this case 9.8 μL is added per well and 0.2 μL compound is added in DMSO. […]
Stop/detector mix is prepared by mixing 4 μL Red detector and 1.6 μL or 2.0 μL GST-GRP with 1 mL Stop buffer, which results in 10 nM probe and 70 nM GST-GRP). […] The plates are read after 30-90 minutes keeping the red probe solutions dark. […] Plates are read on machines with filters for Tamra. The units are mP with no enzyme controls reading app 190-220 mP units. Fully active enzyme reduces fluorescence polarization down to 70-100 mP after 30 minutes.
In general terms: In fluorescence polarisation assays a small probe gives low polarisation when free and higher when bound to something large.

For orientation: IC50 means the concentration that inhibits the measured activity by half. Low values mean greater potency in that assay, high ones weaker potency in that assay. For the compound `COC(=O)N1CCC(n2ncc3c(N4CC5CCC(C4)O5)nc(-c4ccc(NC(=O)NC5CC5)cc4)nc32)CC1` [Example 12, methyl 4-[6-{4-[(cyclopropylcarbamoyl)amino]phenyl}-4-(8-oxa-3-azabicyclo[3.2.1]oct-3-yl)-1H-pyrazolo[3,4-d]pyrimidin-1-yl]piperidine-1-carboxylate], the IC50 was found to be 6.66 µM.
